Reference: patent publication US20160287564A1, “METHODS OF ADMINISTERING GLUTAMINASE INHIBITORS” (Calithera Biosciences, Inc., priority 2015, published 2016)

Tests used:
[1] = Plasma pharmacokinetics after oral TID/BID dosing, fasted or fed, in human subjects with acute leukemia
[2] = Safety: dose-limiting toxicity and treatment-related adverse events in Examples 1 and 2; conditions: in more than 10% of the subjects

SMILES	exposure versus dose ([1]; 100 to 1000 mg per dose TID, oral)	grade 3 or higher treatment-related adverse events [2]	drug exposure, fed BID group versus fasted TID group ([1]; 600 mg BID fed (1200 mg/day) vs 600 mg TID fasted (1800 mg/day))
O=C(Cc1cccc(OC(F)(F)F)c1)Nc1ccc(CCCCc2nnc(NC(=O)Cc3ccccn3)s2)nn1 [CB-839]	increase in exposure was demonstrated with increasing dose	No grade 3 or higher adverse events were considered treatment-related in more than 10% of the subjects	–
O=C(Cc1cccc(OC(F)(F)F)c1)Nc1ccc(CCCCc2nnc(NC(=O)Cc3ccccn3)s2)nn1 [compound of formula III]	–	–	each group had the same amount of drug exposure
